Drawing on ChEMBL document CHEMBL4196169 (J Med Chem, 2018), this text covers IC50 for one compound.

Sequences of proteins named here, by UniProt entry; tags and fusion partners are left off.
UniProt P00519, whole entry: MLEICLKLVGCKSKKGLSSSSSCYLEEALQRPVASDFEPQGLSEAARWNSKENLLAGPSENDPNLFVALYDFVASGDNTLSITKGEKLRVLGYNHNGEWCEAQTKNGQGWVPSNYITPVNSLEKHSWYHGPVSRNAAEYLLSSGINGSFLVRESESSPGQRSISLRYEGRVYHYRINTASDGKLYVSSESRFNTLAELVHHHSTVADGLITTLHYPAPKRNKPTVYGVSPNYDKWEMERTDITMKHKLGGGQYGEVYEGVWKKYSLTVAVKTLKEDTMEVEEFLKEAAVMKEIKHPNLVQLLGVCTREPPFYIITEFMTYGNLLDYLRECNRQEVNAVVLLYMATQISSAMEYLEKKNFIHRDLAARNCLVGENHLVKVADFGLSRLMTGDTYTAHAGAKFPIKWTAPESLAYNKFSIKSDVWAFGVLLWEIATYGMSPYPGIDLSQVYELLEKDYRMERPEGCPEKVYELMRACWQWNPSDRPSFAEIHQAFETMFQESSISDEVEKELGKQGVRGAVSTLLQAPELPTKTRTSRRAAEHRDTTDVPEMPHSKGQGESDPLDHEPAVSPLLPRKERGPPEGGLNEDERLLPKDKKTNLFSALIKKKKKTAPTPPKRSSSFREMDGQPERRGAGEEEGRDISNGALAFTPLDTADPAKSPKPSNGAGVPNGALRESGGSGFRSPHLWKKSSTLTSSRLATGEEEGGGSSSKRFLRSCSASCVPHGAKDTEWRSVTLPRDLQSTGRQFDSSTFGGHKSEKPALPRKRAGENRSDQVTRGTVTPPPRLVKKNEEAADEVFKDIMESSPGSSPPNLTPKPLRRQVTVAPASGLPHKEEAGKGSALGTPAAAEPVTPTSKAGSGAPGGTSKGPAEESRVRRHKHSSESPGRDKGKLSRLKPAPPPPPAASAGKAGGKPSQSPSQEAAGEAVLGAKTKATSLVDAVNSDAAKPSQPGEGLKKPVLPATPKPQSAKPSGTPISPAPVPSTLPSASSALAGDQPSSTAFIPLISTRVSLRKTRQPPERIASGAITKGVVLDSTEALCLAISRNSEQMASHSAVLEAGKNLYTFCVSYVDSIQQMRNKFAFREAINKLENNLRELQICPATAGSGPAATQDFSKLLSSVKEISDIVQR

SMILES strings stand for the structures.

Assay [1] concerns the target T1, Tyrosine-protein kinase ABL1 (Homo sapiens, UniProt P00519). Description: Inhibition of recombinant human c-ABL SH1 domain (46 to 515 residues) expressed in bacterial expression system using EAIYAAPFAKKK as substrate measured every 20 secs in presence of [gamma-32P]ATP.
For assay [2], the target named is T1, Tyrosine-protein kinase ABL1. Kind of assay: Inhibition of recombinant human c-ABL SH3/SH2/SH1 domain (46 to 515 residues) expressed in bacterial expression system using EAIYAAPFAKKK as substrate measured every 20 secs in presence of [gamma-32P]ATP.

Regarding `O=C(NCCO)c1cccc(-c2cc(Nc3ccc(OC(F)(F)F)cc3)ncn2)c1`, the IC50 in assay [1] was over 10000 nM; in assay [2], 17 nM.
